Screening results (PubChem BioAssay)
Cneo AK release: Cryptococcus neoformans lysis via adenylate kinase release. actives 0.2% (n = 360,000). lysis activity, % at 15 µM. C. neoformans lysis, adenylate kinase release luminescence, 4 h; normalised: neutral wells 0, clomiphene wells 100. AID 651654;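 active means mean lysis activity across replicates of at least 80%, whatever share of replicates individually reach that level; inactive means mean lysis activity below 80%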
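Assay system: Cryptococcus neoformans yeast cells / Dosing: single-point compound dose / Timing: 4 h at 37 °C static, read 1 h later / Measured by: luminescence of released adenylate kinase using an AK detection reagent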
UUG fidelity: alters start codon recognition fidelity in yeast; S. cerevisiae UUG-firefly luciferase reporter, luminescence/redox ratio; activity score, % at 18.7 µM; actives 0.13% (n = 350,000); AID 602363;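 active = replicate mean at a twofold rise or more, about +100% in these data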;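 also: firefly luciferase made from a UUG start codon reports start codon fidelity; reporter light over untreated wells divided by growth signal over untreated wells; some hits fall short of that in this replicate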
E-sel inducer: induces E-selectin expression in human endothelial cells | activation, % at 7.58 µM | HUVEC E-selectin immunofluorescence imaging; normalized: neutral wells 0, TNF-alpha wells 100 | P16581 | actives 0.37% (n = 260,000);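 active means mean E-selectin-positive cell signal at least 10% of the positive control, reached in at least 60% of replicates, without over 20% cell loss; inconclusive means no rule given, readout overlaps actives, possibly toxicity-flagged; inactive means the rest, including those meeting only one limit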
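Material: HUVEC primary endothelial cells; Amount: 3,000 cells per well; Dosing: single concentration; Medium: EGM-2 growth medium on 0.1% gelatin-coated wells; Read-out basis: percent E-selectin-positive cells; Signal: immunofluorescence imaging; Control set: TNF-alpha, DMSO.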
DENV2 CPE: protects cells from dengue virus 2 cytopathic effect | CPE inhibition, % at 9.99 µM | actives 1.7% (n = 350,000) | DENV2-infected cells, cytopathic effect rescue, plate reader; in the data active means CPE inhibition above about 20%, passing the limit was not always enough; inconclusive means no clear call, values can overlap the other calls; tested in BHK-21 cells
Each line names hits and unclear results; the compound was inactive in the other large screens. This is a sample that favours compounds with a hit; in the whole collection about 1.8% have one here.

CC(C)NC(=O)Nc1ccc2c(c1)C(=O)N([C@@H](C)CO)C[C@@H](C)[C@@H](CN(C)Cc1ccc(C(F)(F)F)cc1)O2	E-sel inducer 59.3
CC(C)NC(=O)Nc1ccc2c(c1)C(=O)N([C@H](C)CO)C[C@@H](C)[C@H](CN(C)Cc1ccc(C(F)(F)F)cc1)O2	none
CC(C)NC(=O)Nc1ccc2c(c1)C(=O)N([C@@H](C)CO)C[C@H](C)[C@@H](CN(C)Cc1ccc(C(F)(F)F)cc1)O2	E-sel inducer 89.1
C[C@H]1CN([C@@H](C)CO)C(=O)c2cc(NC(=O)C3CC3)ccc2O[C@H]1CN(C)Cc1ccc(C(F)(F)F)cc1	DENV2 CPE 26.6
COc1ccc(NC(=O)N(C)C[C@H]2OCCCC[C@H](C)Oc3ccc(NS(C)(=O)=O)cc3C(=O)N([C@@H](C)CO)C[C@@H]2C)cc1	none (no result: DENV2 CPE)
O=C(c1ccccn1)N1CC(=O)N2[C@@H](CO)[C@H](c3ccc(C#Cc4ccccc4)cc3)[C@@H]2C1	none (no result: Cneo AK release, UUG fidelity)
O=S(=O)(c1ccc(F)cc1)N1C[C@H]2[C@@H](c3ccccc31)[C@@H](CO)N2Cc1ccccc1Cl	none
Cc1ccc(S(=O)(=O)NCC[C@H]2CC[C@H](NS(=O)(=O)c3ccccc3Cl)[C@@H](CO)O2)cc1	DENV2 CPE inconclusive
CCCC1CC(CCc2ccccc2)OS(=O)(=O)N1 (stereo not given)	DENV2 CPE 40.2
CC(=O)c1ccc2c3c(cc(C)c2c1)CCCC3	DENV2 CPE 24.8
Cc1cc(C)cc(OCC(=O)OC/C(O)=C(\C#N)c2nc3ccccc3[nH]2)c1	none (no result: Cneo AK release, UUG fidelity, DENV2 CPE)
Cc1cccc(C)c1OCC(=O)OC/C(O)=C(\C#N)c1nc2ccccc2[nH]1	DENV2 CPE 32.7 (no result: E-sel inducer)
Cc1ccc(S(=O)(=O)N[C@H]2CC[C@H](CCNC(=O)c3ccc4c(c3)OCO4)O[C@@H]2CO)cc1	none
CC(C)c1ccc(Nc2ncc3c(n2)CCN(C(=O)Nc2ccc(F)c(Cl)c2)C3)cc1	DENV2 CPE 20.1
COc1cccc(NC(=O)N2CCc3nc(Nc4cc(Cl)cc(Cl)c4)ncc3C2)c1	none
C[C@@H]1CN([C@H](C)CO)C(=O)Cc2cc(NC(=O)C3CCCCC3)ccc2O[C@H]1CN(C)C(=O)NC1CCCCC1	none
O=C(C1CC1)N1[C@@H](CO)[C@@H]2c3ccccc3NC[C@@H]21	DENV2 CPE 94.6
O=C(C1CC1)N1[C@H](CO)[C@@H]2c3ccccc3NC[C@@H]21	none (no result: DENV2 CPE)
OC[C@@H]1[C@H]2c3ccccc3NC[C@H]2N1CC1CCCCC1	none
OC[C@H]1[C@@H]2c3ccccc3NC[C@@H]2N1Cc1ccccc1Cl	DENV2 CPE 32.5
OC[C@H]1[C@H]2c3ccccc3NC[C@H]2N1CC1CCOCC1	DENV2 CPE 21.1
CO[C@@H]1CN(C)C(=O)c2cc(NC(=O)Nc3ccc4c(c3)OCO4)ccc2OC[C@H](C)NC[C@@H]1C	none
C[C@@H]1CN([C@H](C)CO)C(=O)c2cccc(NS(=O)(=O)c3ccc(Cl)cc3)c2O[C@H]1CN(C)S(=O)(=O)c1cccs1	none (no result: Cneo AK release, UUG fidelity, DENV2 CPE)
C[C@H](CO)N1C[C@H](C)[C@@H](CN(C)C(=O)c2ccccc2)OCCCC[C@H](C)Oc2ccc(NS(=O)(=O)c3ccc(Cl)cc3)cc2C1=O	none
Cc1ccc(S(=O)(=O)N(C)C[C@@H]2OCCCC[C@@H](C)Oc3ccc(NC(=O)Nc4ccc5c(c4)OCO5)cc3C(=O)N([C@H](C)CO)C[C@@H]2C)cc1	none (no result: E-sel inducer)
CCC(=O)Nc1ccc2c(c1)OC[C@@H](C)N(C(C)=O)C[C@@H](C)[C@@H](OC)CN(C)C2=O	DENV2 CPE 23.9
CO[C@@H]1CN(C)C(=O)c2ccc(NC(=O)CC(F)(F)F)cc2OC[C@H](C)N(C(C)=O)C[C@@H]1C	DENV2 CPE 108.0 (no result: Cneo AK release, UUG fidelity)
CCC(=O)Nc1ccc2c(c1)OC[C@@H](C)N(C(C)=O)C[C@H](C)[C@@H](OC)CN(C)C2=O	none
CCC(=O)Nc1ccc2c(c1)OC[C@@H](C)N(C(C)=O)C[C@H](C)[C@H](OC)CN(C)C2=O	DENV2 CPE 27.4
CCC(=O)Nc1ccc2c(c1)OC[C@H](C)N(C(C)=O)C[C@H](C)[C@@H](OC)CN(C)C2=O	none
CC(C)Cn1c(N)c(C(=O)COC(=O)c2cc(-c3ccccc3)nc3ccccc23)c(=O)n(C)c1=O	DENV2 CPE 29.9
CC(C)Cn1c(N)c(C(=O)COC(=O)c2cc(-c3ccco3)nc3ccccc23)c(=O)n(C)c1=O	none
CCCNC(=O)N1CC2(CN(C(=O)C3CCCCC3)C2)c2c([nH]c3cc(OC)ccc23)[C@H]1CO	none (no result: Cneo AK release, UUG fidelity)
COCCN(C[C@H]1N[C@H](CO)[C@@H]1c1ccc(-c2ccc(F)cc2)cc1)C(C)=O	DENV2 CPE 34.8
CCN(C[C@@H]1N[C@@H](CO)[C@@H]1c1ccc(-c2ccc(F)cc2)cc1)C(=O)COC	none
COCCN(C[C@@H]1N[C@@H](CO)[C@H]1c1ccc(-c2ccc(F)cc2)cc1)C(C)=O	none
CCN(C[C@H]1N[C@H](CO)[C@@H]1c1ccc(-c2ccc(F)cc2)cc1)C(=O)COC	DENV2 CPE 44.7
CO[C@@H]1CN(C)C(=O)c2ccc(NC(=O)C3CCCCC3)cc2OC[C@H](C)N(Cc2nccs2)C[C@H]1C	none
COc1ccc(C2CC(c3ccc(C)o3)=NN2C(C)=O)cc1 (stereo not given)	DENV2 CPE 34.2 (no result: Cneo AK release, UUG fidelity, E-sel inducer)
CC(=O)N1N=C(c2ccc(C)o2)CC1c1ccc(Br)cc1 (stereo not given)	none (no result: E-sel inducer, DENV2 CPE)
O=C1COc2ccc(S(=O)(=O)N3CCN(c4cccc(C(F)(F)F)c4)CC3)cc2N1	none (no result: E-sel inducer)
Cc1cc2c(cc1S(=O)(=O)N1CCN(c3cccc(C(F)(F)F)c3)CC1)OCC(=O)N2	DENV2 CPE 31.6
O=C(C[C@@H]1C[C@@H]2c3cc(NC(=O)Nc4ccc(C(F)(F)F)cc4)ccc3O[C@@H]2[C@@H](CO)O1)NC1CCCCC1	DENV2 CPE inconclusive
O=C(c1ccccc1)N1CC2(C1)[C@@H](c1ccccc1)[C@@H](CO)N2CC1CC1	DENV2 CPE 21.4 (no result: Cneo AK release, UUG fidelity)
O=C(c1ccncc1)N1CC2(C1)[C@H](c1ccccc1)[C@@H](CO)N2CC1CCOCC1	DENV2 CPE 73.4 (no result: Cneo AK release, UUG fidelity)
O=C(c1ccccc1F)N1CC2(C1)[C@@H](c1ccccc1)[C@H](CO)N2CC1CC1	DENV2 CPE 29.6 (no result: Cneo AK release, UUG fidelity)
C/C=C/c1ccc([C@H]2[C@@H](CO)N(CC3CCCC3)C23CN(C(=O)CC)C3)cc1	DENV2 CPE 28.8 (no result: Cneo AK release, UUG fidelity)
Cc1noc(C)c1NC(=O)Nc1ccc2c(c1)C(=O)N([C@@H](C)CO)C[C@H](C)[C@@H](CN(C)C(=O)Nc1ccccc1)OCCCC[C@H](C)O2	none
COc1ccc2c3c([nH]c2c1)[C@@H](CO)N(C(=O)Nc1ccccc1F)CC31CN(C(=O)c2ccccc2F)C1	none (no result: Cneo AK release, UUG fidelity)
O=C(Nc1ccccc1)N1CCCCN2[C@H](CO)[C@H](c3ccc(C#Cc4ccccc4)cc3)[C@H]2C1	none
CO[C@H]1CN(C)C(=O)c2cc(NC(C)=O)ccc2OC[C@@H](C)N(Cc2ccccc2F)C[C@H]1C	none
C[C@@H]1CCCCO[C@H](CN(C)C(=O)CCCN(C)C)[C@@H](C)CN([C@@H](C)CO)C(=O)c2cc(NC(=O)c3ccccc3)ccc2O1	none (no result: Cneo AK release, UUG fidelity, DENV2 CPE)
